Structures are written as SMILES.

The Ki is a measure of affinity in units of concentration, obtained from inhibition or displacement. A higher Ki goes with a looser hold on the target.

The test addresses T1, urokinase enzyme Abbokinase (Homo sapiens, UniProt P00749).
T1 construct: purchased Abbott Laboratories, Abbott Park, IL
The test can be described thus: Inhibition of urokinase on chromogenic substrate S-2444. The test is classed as biochemical.
`CC(C)C1=NCCc2ccc(C3CC3c3ccc4cc(C(=N)N)ccc4c3)cc21` (stereo not drawn) [Example 14, 6-(2-(1-isopropyl-3,4-dihydro-7-isoquinolinyl)cyclopropyl)-2-naphthalenecarboximidamide] registered a Ki of 143 nM. Then `CC(C)C1=NCCc2ccc([C@H]3C[C@@H]3c3ccc4cc(C(=N)N)ccc4c3)cc21` [Example 28, 6-((1S,2S)-2-(1-isopropyl-3,4-dihydro-7-isoquinolinyl)cyclopropyl)-2-naphthalenecarboximidamide], with 58 nM. `CC(C)C1=NCCc2ccc([C@@H]3C[C@H]3c3ccc4cc(C(=N)N)ccc4c3)cc21` [Example 29, 6-((1R,2R)-2-(1-isopropyl-3,4-dihydro-7-isoquinolinyl)cyclopropyl)-2-naphthalenecarboximidamide]: the Ki worked out at 360 nM.

Source of the values: patent publication EP1276722B1, “NAPHTHAMIDINE UROKINASE INHIBITORS” (ABBOTT LABORATORIES, priority 2000, dated 2001).
